AlphaSeq binding of Ab-95 light chain variants to a spike HR2 peptide

Antigen: PDVDLGDISGINAS, a 14-residue peptide of the SARS-CoV-2 spike HR2 region.

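The starting antibody came from a phage panning campaign against this peptide. The library (AAYL52) carries one to three amino acid substitutions per variant, with no insertions or deletions. AlphaSeq pools MATa yeast showing the antibodies with MATalpha yeast showing the peptide. Pairs that bind mate more often; barcode pairs of the diploids are counted by sequencing. Read counts were normalised to the haploid input and turned into Kd by a linear fit to BCL2-family pairs of known affinity, for each replicate. The assay was run in three technical replicates.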

Parent scFv Ab-95: VH joined to VL by the linker GGGGSGGGGSGGGGS. Changes lie in the light chain CDRs alone.
VH: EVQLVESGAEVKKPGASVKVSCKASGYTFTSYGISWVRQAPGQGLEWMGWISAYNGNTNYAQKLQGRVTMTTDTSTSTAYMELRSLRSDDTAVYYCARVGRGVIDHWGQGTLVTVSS
VL: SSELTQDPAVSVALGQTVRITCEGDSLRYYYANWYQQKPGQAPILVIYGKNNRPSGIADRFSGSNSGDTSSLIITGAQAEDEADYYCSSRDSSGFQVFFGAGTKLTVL

The parent's light chain CDRs are EGDSLRYYYAN, GKNNRPS, SSRDSSGFQVF; each variant's own CDRs replace them letter for letter.
Values are log10 of the apparent Kd in nM; lower means stronger binding.
The mean shown is taken over the replicates in which the pair was detected.
"nd" means that the variant was in the library but no mating with the target was seen in that replicate; the authors take this as a sign of poor binding, and no number exists.

CDR-L1,CDR-L2,CDR-L3,"replicates, log10 nM","log10 Kd (nM), mean",empty controls
EGDSLRKYYAN,GKNNRRS,SSRDSSGFQVF,3.33 4.02 2.61,3.32,2/9 (5.12)
LGDSLRYYYCN,GKNNRPS,SGRDSSGFQVF,3.54 3.04 2.81,3.13,0/9
EGDSLRYYYAR,GKNNVPS,SSRTSSGFQVF,nd 4.35 4.28,4.31,4/9 (4.49)
EGDSLKYYYAN,GKNNRPS,SSRDSDGYQVF,nd 2.46 nd,2.46,0/9
EGDSARYYFAN,GKNNVPS,SSRDSSGFQVF,nd nd nd,nd,1/9 (4.76)
EGDSLRYYTAN,GKNNRPS,DSRDSSGFQVQ,nd nd nd,nd,2/9 (3.18)
EGKYLRYYYAN,GKNNRPS,SSRDQSGFQVF,2.98 2.93 2.53,2.81,2/9 (4.11)
EDDSLRQYYAN,GKNNRPS,SSRDSSGFQGF,3.31 nd 3.67,3.49,2/9 (4.22)
EGDSERYYYAN,GKNNRHS,SSLDSSGFQVF,nd 2.95 nd,2.95,1/9 (4.29)
DGDSLRCYYAN,GKNNRPS,SSRDSSGFQVL,4.86 4.08 4.71,4.55,1/9 (5.78)
EGDSLRYYYAN,GKNNRPS,ESMDSSGFYVF,nd nd nd,nd,2/9 (3.91)
EGDDLRYYYAS,GKNNRPS,SSRDSSGFQVF,2.06 2.28 1.78,2.04,6/9 (2.97)
EGDSLRYWYAN,LKNNRPS,SSRDSSGPQVF,3.05 nd nd,3.05,4/9 (3.39)
EGDSLRPYYAN,GKNNRPS,SLRDSSGFQGF,2.43 2.18 nd,2.31,4/9 (3.51)
EGDSLRYYYRN,GKNNRPS,KSRPSSGFQVF,nd nd nd,nd,2/9 (4.03)
EGDSLRYYYAN,GKNNRPS,SSRSSSGWQVF,nd 2.95 nd,2.95,0/9
EGDYLRYYYAN,GKENRPS,SGRDSSGFQVF,2.59 2.21 2.11,2.30,4/9 (4.59)
EGTSHRYYYAN,GKNNRRS,SSRDSSGFQVF,3.84 4.49 nd,4.16,3/9 (3.43)
GGDSLRYYYAN,GKNNRPS,SSRDSSGFQVT,2.02 1.91 1.55,1.83,4/9 (3.86)
EGDSLRYYYAN,GKNNRPS,SSRGSVGFQSF,2.22 1.87 2.02,2.03,7/9 (3.99)
EGDSLRYYYAN,GKNNRPT,CSRDSSGFTVF,3.52 2.92 4.48,3.64,1/9 (4.14)
EGDSLMYYYAN,MKNNRPS,SSRDNSGFQVF,nd nd nd,nd,3/9 (4.10)
EGDSLRYNYAN,GKNNSPS,VSRDSSGFQVF,2.28 2.55 1.48,2.10,1/9 (3.67)
EGFSLRFYYAN,GKNNRPS,SSRDSSGQQVF,nd 3.15 3.07,3.11,2/9 (3.72)
EGDSLRYYYAN,GKNNRPG,SIRDISGFQVF,2.79 2.45 2.49,2.58,4/9 (3.85)
EIDSLRCYYAN,GKNNRPS,SSRSSSGFQVF,3.08 3.55 nd,3.32,3/9 (3.56)
EGDSLRYYYAN,GKTNRVS,ISRDSSGFQVF,3.76 4.21 2.83,3.60,5/9 (4.18)
EGDSRRYYYAN,GQNNRPS,SSRDSSGFQVK,nd nd 3.19,3.19,0/9
EGDSLRYYSAN,GKNNRRS,SSRDSMGFQVF,3.06 3.11 2.79,2.99,4/9 (3.57)
EGDSLRYYRAN,GKNNRPS,SSRCSEGFQVF,nd nd nd,nd,0/9
EGDSLAYRYAN,LKNNRPS,SSRDSSGFQVF,5.62 nd 4.33,4.97,3/9 (4.58)
EGASLRYYYAL,GKNNRPS,SSRDSSGFQVF,nd nd nd,nd,1/9 (4.81)
EGDSLRYYYAN,GKNNRSS,TSRDHSGFQVF,nd nd nd,nd,2/9 (3.49)
EGDSLRYYYAN,GKNNRVS,SSRDYSGTQVF,2.81 2.92 2.41,2.71,0/9
EGDSLMYYYAN,GKNERPS,SSRDSSGFQVF,2.23 2.19 1.68,2.03,4/9 (4.33)
EGDSLRLYYAN,GKNNRPS,SRIDSSGFQVF,3.75 nd nd,3.75,4/9 (3.52)
EGDSFRYYYAN,GKGNRPS,SSRDSSGFQIF,3.64 3.85 nd,3.74,3/9 (4.47)
FGDSLYYYYAN,GKNNRPS,SSCDSSGFQVF,3.03 5.27 2.96,3.75,5/9 (3.70)
TGDSLRYYYAN,TKNNRPS,SYRDSSGFQVF,3.95 nd nd,3.95,2/9 (3.24)
EGDSLRYYYYN,GFNNRPS,SSRDSSGFDVF,4.33 nd 3.40,3.86,6/9 (4.18)
EGDSLRYYYAR,GKNDRPS,SSRLSSGFQVF,nd nd nd,nd,4/9 (4.12)
EGDVLRYYYAN,GKNNRPS,SLRDSSGTQVF,3.57 3.41 nd,3.49,5/9 (3.54)
EGDPLRYYTAN,VKNNRPS,SSRDSSGFQVF,4.83 nd 4.10,4.46,3/9 (3.97)
EMDSLRYYYAN,GKNNRPS,SSCLSSGFQVF,3.12 4.38 3.81,3.77,3/9 (3.68)
EGDFLRYYYAN,GKNNRYS,SSRDSSGFQVT,2.92 3.00 nd,2.96,3/9 (3.23)
EGDSLRYYYCN,GKMNRPS,SSRDSSGFLVF,nd 4.00 nd,4.00,3/9 (3.71)
EGDSLRYYYAN,GKNNRIS,SSRDSSGFQGF,2.68 2.80 2.21,2.56,3/9 (3.69)
EGDLLRYYYAN,GKNNAPS,SSRDSSGFQVN,3.54 nd nd,3.54,4/9 (3.75)
EGDSLRYYYAN,MKNNRPS,MSRDSSGFQVF,3.71 3.15 4.35,3.74,2/9 (3.95)
EGDSLRYYYAN,GKNNRPS,TSRDSSGFYVF,3.32 nd 3.35,3.33,1/9 (4.56)

The closing 7 entries, repeated:

CDR-L1	CDR-L2	CDR-L3	replicates, log10 nM	log10 Kd (nM), mean	empty controls
EMDSLRYYYAN	GKNNRPS	SSCLSSGFQVF	3.12 4.38 3.81	3.77	3/9 (3.68)
EGDFLRYYYAN	GKNNRYS	SSRDSSGFQVT	2.92 3.00 nd	2.96	3/9 (3.23)
EGDSLRYYYCN	GKMNRPS	SSRDSSGFLVF	nd 4.00 nd	4.00	3/9 (3.71)
EGDSLRYYYAN	GKNNRIS	SSRDSSGFQGF	2.68 2.80 2.21	2.56	3/9 (3.69)
EGDLLRYYYAN	GKNNAPS	SSRDSSGFQVN	3.54 nd nd	3.54	4/9 (3.75)
EGDSLRYYYAN	MKNNRPS	MSRDSSGFQVF	3.71 3.15 4.35	3.74	2/9 (3.95)
EGDSLRYYYAN	GKNNRPS	TSRDSSGFYVF	3.32 nd 3.35	3.33	1/9 (4.56)

As a blank, each scFv also met three strains without target: over library AAYL52, 28% of these pairings were detected, typically at 3.91 and seldom below 2.90. Also given: how often the same scFv was detected with the empty control strains, with their mean in brackets.
In this assay the parent's reference entry averaged 2.31; its copy inside this library read 2.25.

Reference: Engelhart et al. 2022, doi:10.1038/s41597-022-01779-4. File: FLAb, binding data.